Results from BindingDB's records for doi:10.1007/pl00005131 (UniversitÄT WÜRzburg, 1998).

Sequences of proteins named here, by UniProt entry; tags and fusion partners are left off.
UniProt P0DMS8, whole entry: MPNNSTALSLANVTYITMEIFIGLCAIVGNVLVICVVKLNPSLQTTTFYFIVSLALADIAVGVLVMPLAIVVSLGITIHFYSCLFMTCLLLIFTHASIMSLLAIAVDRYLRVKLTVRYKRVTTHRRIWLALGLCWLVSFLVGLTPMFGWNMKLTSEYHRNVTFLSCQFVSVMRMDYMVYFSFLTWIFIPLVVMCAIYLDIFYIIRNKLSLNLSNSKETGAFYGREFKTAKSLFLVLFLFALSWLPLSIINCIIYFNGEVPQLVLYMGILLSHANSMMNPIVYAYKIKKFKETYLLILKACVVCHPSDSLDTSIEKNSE

Biological target: Adenosine receptor A3 (Homo sapiens, UniProt P0DMS8)

Row | Ki | Compound
1 | 0.64 nM | CNC(=O)[C@H]1O[C@@H](n2cnc3c(NCc4ccc(N)c(I)c4)ncnc32)[C@H](O)[C@@H]1O
2 | 16.3 nM and 44.6 nM | CC(Cc1ccccc1)Nc1ncnc2c1ncn2C1OC(CO)C(O)C1O (configuration not stated) [R-N6-(2-phenylisopropyl) adenosine]

Several values for one entry are separate records, joined by “and”; a condition that tells them apart may be missing. Equal values may be shown once.
